Laboratory results taken from US20080292736A1, “Bioavailability enhancing activity of carum carvi extracts and fractions thereof” (COUNCIL OF SCIENTIFIC AND INDUSTRIAL RESEARCH, priority 2001, published 2008).

Experiment: Enhancement of bioavailability of drugs given to rats with bioenhancers (plasma drug level by HPLC)

Iron
nil: % Enhancement in bioavailability, BE from Zingiber officinale (drug with Zingiber officinale 50% alcoholic extract of fresh ginger 35 mg/kg, drug dose as in row) | % Enhancement in bioavailability, Piperine as BE (drug with piperine 8 mg/kg, drug dose as in row) | % Enhancement in bioavailability, Carum carvi (Cc) Frac 1. (nutraceutical with Carum carvi Fraction No. 1 15 mg/kg) | % Enhancement in bioavailability, Carum carvi + Zingiber officinale, Frac 1. (Cc) (nutraceutical with Carum carvi Fraction No. 1 and Zingiber officinale) | % Enhancement in bioavailability, Carum carvi + piperine, Frac 1. (Cc) (nutraceutical with Carum carvi Fraction No. 1 and piperine) | % Enhancement in bioavailability, Carum carvi (Cc) Extr. (nutraceutical with Carum carvi extract 30 mg/kg) | % Enhancement in bioavailability, Carum carvi + Zingiber officinale, Extr. (Cc) (nutraceutical with Carum carvi extract and Zingiber officinale) | % Enhancement in bioavailability, Carum carvi + piperine, Extr. (Cc) (nutraceutical with Carum carvi extract and piperine)
